What was measured:
[1] = test system: ADP-induced aggregation of human platelets (PRP); assay: Platelet aggregation assay (Aggregation-Human/PRP/ADP); conditions: read-out: PRP (IC50 μM); human platelet rich plasma, ADP 20 μM
Description: In addition to the ELISA integrin binding assays described above, the Aggregation-Human/PRP/ADP Assay is useful for evaluating therapeutic compounds.
Platelet rich plasma (PRP) is prepared from healthy human volunteers for use in determining inhibition of platelet aggregation by compounds. Blood was collected via a 21 gauge butterfly cannula, using a two-syringe technique into 1/10 volume of […] trisodium citrate.
Platelet rich plasma was prepared at room temperature by centrifugation of the citrated whole blood at 100×g for 15 minutes. The PRP contained approximately 200-400,000 platelets/μl. Platelet poor plasma was prepared by centrifugation of citrated whole blood at 12,000×g for 2 minutes.
Platelet aggregation was assayed in a Chrono-log whole blood aggregometer (Chrono-log Corporation, Havertown, Pa.) using the PRP prepared above according to the manufacturers directions. Inhibition of platelet aggregation was studied by adding varying amounts of test materials followed by adenosine diphosphate (ADP, 20 μM) to stirred human PRP. Specifically, the human PRP was incubated with the compound for 1-2 min. at 37° C. prior to addition of the aggregating agent ADP.

The chains behind the UniProt entries cited, without tags or fusion partners. Residues count along the entry.
UniProt P05106, 27-788 limits assumed: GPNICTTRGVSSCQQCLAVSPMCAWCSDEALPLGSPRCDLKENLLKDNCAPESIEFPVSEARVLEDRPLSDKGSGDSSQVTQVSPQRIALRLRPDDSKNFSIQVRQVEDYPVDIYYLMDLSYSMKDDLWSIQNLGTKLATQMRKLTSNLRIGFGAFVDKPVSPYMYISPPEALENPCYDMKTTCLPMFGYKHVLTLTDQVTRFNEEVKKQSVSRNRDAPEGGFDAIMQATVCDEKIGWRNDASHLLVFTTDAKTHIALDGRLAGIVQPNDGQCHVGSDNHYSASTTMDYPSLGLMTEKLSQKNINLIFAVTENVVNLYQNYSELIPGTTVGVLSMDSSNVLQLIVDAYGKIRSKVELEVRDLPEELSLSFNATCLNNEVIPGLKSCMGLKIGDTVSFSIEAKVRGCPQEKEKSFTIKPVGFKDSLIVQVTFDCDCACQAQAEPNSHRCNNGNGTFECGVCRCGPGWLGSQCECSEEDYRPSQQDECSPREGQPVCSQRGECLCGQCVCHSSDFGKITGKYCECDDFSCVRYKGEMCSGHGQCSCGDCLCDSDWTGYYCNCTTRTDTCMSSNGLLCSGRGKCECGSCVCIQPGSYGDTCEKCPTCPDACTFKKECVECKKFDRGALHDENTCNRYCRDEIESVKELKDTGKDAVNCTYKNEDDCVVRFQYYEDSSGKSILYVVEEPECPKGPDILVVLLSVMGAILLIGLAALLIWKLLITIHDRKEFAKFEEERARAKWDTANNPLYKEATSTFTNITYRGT
UniProt P08514, 32-887 limits assumed: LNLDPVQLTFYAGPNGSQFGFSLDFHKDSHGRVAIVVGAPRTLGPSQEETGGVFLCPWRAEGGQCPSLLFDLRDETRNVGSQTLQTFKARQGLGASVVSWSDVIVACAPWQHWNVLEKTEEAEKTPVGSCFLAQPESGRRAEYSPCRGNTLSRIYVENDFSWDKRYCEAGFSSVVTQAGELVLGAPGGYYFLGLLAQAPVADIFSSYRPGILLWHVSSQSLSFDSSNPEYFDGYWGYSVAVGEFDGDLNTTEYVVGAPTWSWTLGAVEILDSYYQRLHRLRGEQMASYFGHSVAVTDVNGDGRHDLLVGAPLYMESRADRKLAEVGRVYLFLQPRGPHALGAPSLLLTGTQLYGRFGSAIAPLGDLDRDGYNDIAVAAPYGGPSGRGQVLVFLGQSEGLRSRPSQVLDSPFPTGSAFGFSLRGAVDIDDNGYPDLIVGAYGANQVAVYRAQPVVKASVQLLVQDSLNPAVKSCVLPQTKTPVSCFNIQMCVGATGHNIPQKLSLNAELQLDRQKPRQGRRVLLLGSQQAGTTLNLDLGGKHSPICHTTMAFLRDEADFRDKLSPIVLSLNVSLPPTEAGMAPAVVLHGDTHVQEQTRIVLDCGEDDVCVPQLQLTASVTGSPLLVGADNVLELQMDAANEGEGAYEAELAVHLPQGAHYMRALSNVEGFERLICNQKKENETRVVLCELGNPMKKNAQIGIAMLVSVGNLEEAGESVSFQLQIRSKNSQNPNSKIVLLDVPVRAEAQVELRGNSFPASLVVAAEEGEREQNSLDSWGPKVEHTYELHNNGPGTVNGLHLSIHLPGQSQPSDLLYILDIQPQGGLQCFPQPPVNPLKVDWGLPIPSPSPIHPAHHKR
UniProt P08514, 891-1039 partner limits assumed: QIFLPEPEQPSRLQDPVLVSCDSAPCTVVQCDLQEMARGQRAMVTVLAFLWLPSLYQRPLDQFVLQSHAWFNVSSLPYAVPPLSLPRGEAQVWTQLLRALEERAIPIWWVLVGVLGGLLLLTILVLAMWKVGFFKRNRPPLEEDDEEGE
UniProt P06756, 31-889 limits assumed: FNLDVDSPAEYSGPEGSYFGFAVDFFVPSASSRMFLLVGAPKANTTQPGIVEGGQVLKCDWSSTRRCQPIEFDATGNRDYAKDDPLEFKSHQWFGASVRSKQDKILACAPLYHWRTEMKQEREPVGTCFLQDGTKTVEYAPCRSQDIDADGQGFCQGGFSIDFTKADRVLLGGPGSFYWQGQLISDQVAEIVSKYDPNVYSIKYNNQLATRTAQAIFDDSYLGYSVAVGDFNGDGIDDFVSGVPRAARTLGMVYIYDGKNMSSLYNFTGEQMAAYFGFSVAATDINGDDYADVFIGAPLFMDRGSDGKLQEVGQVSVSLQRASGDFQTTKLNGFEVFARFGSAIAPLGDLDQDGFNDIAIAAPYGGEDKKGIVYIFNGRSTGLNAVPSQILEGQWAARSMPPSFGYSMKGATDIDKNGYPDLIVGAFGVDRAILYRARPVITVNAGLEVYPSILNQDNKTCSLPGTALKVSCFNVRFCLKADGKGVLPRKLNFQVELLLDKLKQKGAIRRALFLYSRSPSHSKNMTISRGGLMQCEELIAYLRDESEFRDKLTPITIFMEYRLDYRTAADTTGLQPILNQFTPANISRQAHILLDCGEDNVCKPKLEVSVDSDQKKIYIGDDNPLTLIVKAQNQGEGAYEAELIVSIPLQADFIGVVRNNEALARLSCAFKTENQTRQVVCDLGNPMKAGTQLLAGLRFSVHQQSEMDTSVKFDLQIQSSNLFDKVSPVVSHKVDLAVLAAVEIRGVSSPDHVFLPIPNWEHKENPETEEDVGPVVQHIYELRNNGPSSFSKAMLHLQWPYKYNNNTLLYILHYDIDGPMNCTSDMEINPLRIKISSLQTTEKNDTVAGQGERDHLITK
UniProt P06756, 891-1048 partner limits assumed: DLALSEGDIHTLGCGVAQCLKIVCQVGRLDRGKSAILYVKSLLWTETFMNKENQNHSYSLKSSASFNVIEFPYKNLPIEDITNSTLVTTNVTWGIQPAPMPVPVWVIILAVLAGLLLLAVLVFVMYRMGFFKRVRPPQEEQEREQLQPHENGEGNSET

GPIIb-IIIa = GPIIb-IIIa (Homo sapiens, UniProt P05106+P08514); assay: GPIIb-IIIa ELISA purified integrin binding assay (fibrinogen binding); conditions: read-out: GPIIbIIIa ELISA (IC50 μM); inhibition of biotinylated fibrinogen binding to immobilized purified platelet GPIIb-IIIa
Description: (§1) In the following assays, GPIIb-IIIa and vitronectin receptor, αvβ3 were prepared in purified form, by methods described in Fitzgerald, L. A., et al., Anal Biochem (1985) 151: 169-177 and Smith, J. W., J. Biol Chem (1988) 263: 18726-18731 (the disclosure of which is incorporated herein by reference). GPIIb-IIIa or vitronectin receptor, αvβ3, are coated onto microtiter plates. The coated support is then contacted with fibrinogen for the GPIIb-IIIa assay, or is contacted with vitronectin for the vitronectin receptor, αvβ3 and with test materials and incubated for sufficient time to reach maximal ligand binding to immobilized integrins. The adhesive ligands fibrinogen or vitronectin were typically provided at a concentration of 2-50 nM and the test material can, if desired, be added at a series of diultions. Typical incubations were 2-4 hr at 25° C., the time and temperature being interdependent.
(§2) Purified platelet GPIIb-IIIa was prepared by Fitzgerald, L. A., et al., Anal Biochem 151:169-177 (1985). Vitronectin receptor, αvβ3, was prepared as described by Smith, J. W., J. Biol Chem (1988) 263: 18726-18731. After purification, the receptors were each stored in 0.1% Triton X-100 at 0.1-1.0 mg/ml.
(§3) The receptors were coated to the wells of 96-well flat-bottom enzyme-linked immunoassay (ELISA) plates (Linbro EIA-Plus microtiter plate, Flow Laboratories) after diluting 1:200 with a solution of 20 mM Tris-HCl, 150 mM NaCl, 1 mM CaCl2, pH 7.4 to reduce the Triton X-100 concentration to below its critical micellar concentration and adding an aliquot of 100 μl to each well. The wells were allowed to incubate overnight at 4° C., and then aspirated to dryness. Additional sites were blocked by the addition of bovine serum albumin (BSA) at 35 mg/ml in the above buffer for 2 hr at 30° C. to prevent non-specific binding. The wells were then washed once with binding buffer ([…] Tris-HCl, 100 mM NaCl, 2 mM CaCl2, 1 mg/ml BSA).
(§4) The corresponding ligands (fibrinogen, von Willebrand Factor, or vitronectin) were conjugated to biotin using commercially available reagents and standard protocols. The labeled ligands were added to the receptor-coated wells at a final concentration of 2-10 nM (100 μl/well) and incubated for 3 hr at 25° C. in the presence or absence of test samples. After incubation, the wells were aspirated to dryness and bound ligand containing biotin label was quantitated.
(§5) The bound protein was detected by the addition of anti-biotin antibody conjugated to alkaline phosphatase followed by addition of substrate (p-nitrophenyl […] phosphate), and determination of the optical density of each well at […].

[2] = biological target: vitronectin receptor, αvβ3 (Homo sapiens, UniProt P05106+P06756); assay: αvβ3 ELISA purified integrin binding assay (vitronectin binding); conditions: read-out: αvβ3 ELISA (IC50 μM); inhibition of biotinylated vitronectin binding to immobilized purified αvβ3
Description: as §1, §2, §3, §4, §5

| Structure (SMILES) | IC50 [1] [µM] | IC50 (GPIIb-IIIa) [µM] | IC50 [2] [µM] |
| --- | --- | --- | --- |
| O=C(CNC(=O)C1CCCNC1)NCC(NS(=O)(=O)c1ccccc1)C(=O)O (stereo not drawn) | 122 | 10 | 40 |
| N=C(N)NCCCC(=O)NC[C@H]1CC[C@H](C(=O)NCC(NS(=O)(=O)c2ccccc2)C(=O)O)CC1 (stereo partly drawn) | 0.55 | 0.075 | 15 |
| N=C(N)NCCCCC(=O)N1CCC(C(=O)NCC(NS(=O)(=O)c2ccccc2)C(=O)O)CC1 (stereo not drawn) | 0.22 | 0.08 | 3 |
| CCCCS(=O)(=O)NC(CNC(=O)CCNC(=O)CCCNC(=N)N)C(=O)O (stereo not drawn) | 4.9 | 0.8 | 0.9 |

— US6552079B2, “Integrin antagonists” (Eli Lilly and Company, priority 1996, dated 2003)
